These are literature values, as cited in patent publication US9738710B2, “Method of treating a patient for pain by administering an anti-ion channel antibody” (UCB Biopharma SPRL, priority 2009, dated 2017).

With “Abatacept: fusion of human CTLA-4 with IgG1 hinge-Fc”, the “immunogenicity (patients with anti-drug antibodies / incidence)” value was 3%.

Turning to “Eculizimumab: humanised anti-human C5 mAb comprising a hybrid constant region”, the “immunogenicity (patients with anti-drug antibodies / incidence)” value is listed as 3%.
